Assay [1] concerns the target Catenin beta-1 (Homo sapiens, UniProt P35222).
In assay [2] the test system is MDA-MB-231. The settings on record: Homo sapiens, 5 uM.
Assay [3] relates to MDA-MB-231. The settings on record: Homo sapiens, 5 uM. The source holds these as a separate data set.

Protein sequences, listed by entry. Tags and fused reporters are not part of them.
UniProt P35222, whole entry: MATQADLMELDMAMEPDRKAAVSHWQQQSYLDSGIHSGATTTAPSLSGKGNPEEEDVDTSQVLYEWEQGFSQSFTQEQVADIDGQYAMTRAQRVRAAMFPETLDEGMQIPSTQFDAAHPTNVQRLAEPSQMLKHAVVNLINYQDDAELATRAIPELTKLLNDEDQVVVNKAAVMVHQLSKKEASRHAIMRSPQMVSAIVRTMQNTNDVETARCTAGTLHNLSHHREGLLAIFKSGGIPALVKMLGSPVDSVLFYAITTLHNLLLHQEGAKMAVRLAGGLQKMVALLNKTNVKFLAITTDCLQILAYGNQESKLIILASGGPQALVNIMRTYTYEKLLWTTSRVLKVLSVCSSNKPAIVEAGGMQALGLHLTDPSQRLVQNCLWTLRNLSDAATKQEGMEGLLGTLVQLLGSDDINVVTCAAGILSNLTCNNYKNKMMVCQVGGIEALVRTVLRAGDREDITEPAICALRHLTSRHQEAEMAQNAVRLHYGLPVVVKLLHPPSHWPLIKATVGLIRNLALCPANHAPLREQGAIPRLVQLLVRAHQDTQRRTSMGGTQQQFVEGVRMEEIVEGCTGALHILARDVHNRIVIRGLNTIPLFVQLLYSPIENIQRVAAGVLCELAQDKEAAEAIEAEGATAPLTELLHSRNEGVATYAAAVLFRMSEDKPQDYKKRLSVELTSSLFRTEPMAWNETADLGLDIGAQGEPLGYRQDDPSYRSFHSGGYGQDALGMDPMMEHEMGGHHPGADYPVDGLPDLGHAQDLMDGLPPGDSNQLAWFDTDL

The structures appear in SMILES notation. Active and inactive are the calls of the source. The rule behind the calls is not given here.

For orientation: IC50 means the concentration at which inhibition is half-maximal. A lower IC50 goes with greater potency in that assay. In assay [1], `COC(=O)[C@H](CCC(=O)O)NC(=O)[C@H](CC(=O)O)NC(=O)[C@H](Cc1ccc2ccccc2c1)NC(=O)c1cc2cc(F)ccc2[nH]1` showed an IC50 of 349 µM.

Consider `COC(=O)[C@H](CCC(=O)O)NC(=O)[C@H](CC(=O)O)NC(=O)[C@H](Cc1ccc2ccccc2c1)NC(=O)c1cc2cc(Cl)ccc2[nH]1`, for which, in assay [1], the 50% inhibitory concentration (IC50) was determined as 45 µM.

With `NC(=O)CC[C@H](NC(=O)[C@H](Cc1nn[nH]n1)NC(=O)[C@H](Cc1ccc2ccccc2c1)NC(=O)c1cc2cc(Cl)ccc2[nH]1)C(=O)Nc1ccc(OC(F)(F)F)cc1`, in assay [1], the concentration for half-maximal inhibition (IC50) turned out to be 16 µM.

In turn, `NC(=O)CC[C@H](NC(=O)[C@H](CC(=O)O)NC(=O)[C@H](Cc1ccc2ccccc2c1)NC(=O)c1cc2cc(Cl)ccc2[nH]1)C(=O)Nc1ccc(OC(F)(F)F)cc1` registered a 50% inhibitory concentration (IC50) in assay [1] of 26 µM. This IC50 is about 1.6-fold higher than that of the compound before.

Consider `N#Cc1ccc(C[C@H](NC(=O)c2cc3cc(Cl)ccc3[nH]2)C(=O)N[C@@H](CC(=O)O)C(=O)N[C@@H](CCC(=O)O)C(=O)Nc2ccccc2)cc1`, for which half-maximal inhibition in assay [1] (IC50) required 79 µM.

The compound `O=C(O)CC[C@H](NC(=O)[C@H](CC(=O)O)NC(=O)[C@H](Cc1ccc2ccccc2c1)NC(=O)c1cc2cc(Cl)ccc2[nH]1)C(=O)Nc1ccc2c(c1)OCO2` came in with an IC50 in assay [1] of 9.8 µM.

With `O=C(O)CC[C@H](NC(=O)[C@H](CC(=O)O)NC(=O)[C@H](Cc1ccc2ccccc2c1)NC(=O)c1cc2cc(Cl)ccc2[nH]1)C(=O)Nc1cccc(Cl)c1`, in assay [1], the IC50 amounted to 12 µM. The IC50 values of the last two compounds are within 1.5-fold of each other.

In turn, `O=C(O)CC[C@H](NC(=O)[C@H](CC(=O)O)NC(=O)[C@H](Cc1ccc2ccccc2c1)NC(=O)c1cc2cc(Cl)ccc2[nH]1)C(=O)Nc1ccccc1F` registered an IC50 in assay [1] of 14 µM.

In assay [1], `COc1ccc(C[C@H](NC(=O)c2cc3cc(Cl)ccc3[nH]2)C(=O)N[C@@H](CC(=O)O)C(=O)N[C@@H](CCC(=O)O)C(=O)Nc2ccccc2)cc1` returned an IC50 of 99 µM.

Take `O=C1[C@H](Cc2ccc(O)cc2)N2C(=O)CCN(C(=O)NCc3ccccc3)[C@H]2CN1Cc1cccc2ccccc12`: the inhibition entry in assay [2] and in assay [3] was “Active” in each case.

In assay [1], `O=C(O)CC[C@H](NC(=O)[C@H](CC(=O)O)NC(=O)[C@H](Cc1ccc(Cl)c(Cl)c1)NC(=O)c1cc2cc(Cl)ccc2[nH]1)C(=O)Nc1ccccc1` registered a half-maximal inhibitory concentration (IC50) of 14 µM.

In assay [1], `O=C(O)CC[C@H](NC(=O)[C@H](CC(=O)O)NC(=O)[C@H](Cc1ccc2ccccc2c1)NC(=O)c1cc2cc(Cl)ccc2[nH]1)C(=O)NCc1ccccc1` gave an IC50 of 30 µM.

For `COC(=O)[C@H](CCC(=O)O)NC(=O)[C@H](CC(=O)O)NC(=O)[C@H](Cc1ccc2ccccc2c1)NC(=O)c1cc2cc([N+](=O)[O-])ccc2[nH]1`, the IC50 in assay [1] turned out to be 67 µM.

As to `O=C(O)CC[C@H](NC(=O)[C@H](Cc1nn[nH]n1)NC(=O)[C@H](Cc1ccc2ccccc2c1)NC(=O)c1cc2c(Cl)cc(Cl)cc2[nH]1)C(=O)Nc1ccc(OC(F)(F)F)cc1`, the IC50 in assay [1] was determined as 1.7 µM.

Turning to `O=C(O)CC[C@H](NC(=O)[C@H](CC(=O)O)NC(=O)[C@H](Cc1ccc(C(F)(F)F)cc1)NC(=O)c1cc2cc(Cl)ccc2[nH]1)C(=O)Nc1ccccc1`, the midpoint of inhibition in assay [1], the IC50, lay at 37 µM.

Regarding `NC(=O)C[C@H](NC(=O)[C@H](Cc1ccc2ccccc2c1)NC(=O)c1cc2cc(Cl)ccc2[nH]1)C(=O)N[C@@H](CCC(=O)O)C(=O)Nc1ccc(OC(F)(F)F)cc1`, it took 42 µM to reach half-maximal inhibition in assay [1] (IC50).

In assay [1], `O=C(O)CC[C@H](NC(=O)[C@H](CC(=O)O)NC(=O)[C@H](Cc1ccc2ccccc2c1)NC(=O)c1cc2cc(Cl)ccc2[nH]1)C(=O)Nc1ccccc1` returned an IC50 of 13 µM.

As for `O=C(O)CC[C@H](NC(=O)[C@H](CC(=O)O)NC(=O)[C@H](Cc1ccc2ccccc2c1)NC(=O)c1cc2cc(Cl)ccc2[nH]1)C(=O)Nc1ccc(C(F)(F)F)cc1`, it took 7.3 µM to reach half-maximal inhibition in assay [1] (IC50).

As for `NC(=O)C[C@H](NC(=O)[C@H](Cc1ccc2ccccc2c1)NC(=O)c1cc2cc(Cl)ccc2[nH]1)C(=O)N[C@@H](Cc1nn[nH]n1)C(=O)Nc1ccc(OC(F)(F)F)cc1`, the IC50 in assay [1] amounted to 19 µM. Against the preceding compound, the IC50 is about 2.6-fold higher.

Consider `COC(=O)[C@H](CCC(=O)O)NC(=O)[C@H](CC(=O)O)NC(=O)[C@H](Cc1ccc2ccccc2c1)NC(=O)c1cc2cc(Br)ccc2[nH]1`, for which the IC50 in assay [1] is 62 µM.

As to `O=C(O)CC[C@H](NC(=O)[C@H](CC(=O)O)NC(=O)[C@H](Cc1ccc(Cl)cc1)NC(=O)c1cc2cc(Cl)ccc2[nH]1)C(=O)Nc1ccccc1`, the IC50 in assay [1] was 44 µM.

In the case of `O=C(O)CC[C@H](NC(=O)[C@H](CC(=O)O)NC(=O)[C@H](Cc1ccc2ccccc2c1)NC(=O)c1cc2cc(Cl)ccc2[nH]1)C(=O)Nc1cccc(F)c1`, the IC50 in assay [1] worked out at 13 µM. Against the preceding compound, the IC50 is about 3.4-fold lower.

Turning to `COC(=O)[C@H](CCC(=O)O)NC(=O)[C@H](CC(=O)O)NC(=O)[C@H](Cc1ccc2ccccc2c1)NC(=O)c1cc2c(Cl)cc(Cl)cc2[nH]1`, the IC50 in assay [1] is 17 µM.

As to `COc1cccc(NC(=O)[C@H](CCC(=O)O)NC(=O)[C@H](CC(=O)O)NC(=O)[C@@H](Cc2ccc3ccccc3c2)NC(=O)c2cc3cc(Cl)ccc3[nH]2)c1`, in assay [1], the IC50 came to 31 µM. This IC50 lies about 1.8-fold higher than the previous one.

In turn, `COC(=O)[C@H](CCC(=O)O)NC(=O)[C@H](CC(=O)O)NC(=O)[C@H](Cc1ccc2ccccc2c1)NC(=O)c1cc2c(Cl)cccc2[nH]1` had an IC50 in assay [1] of 60 µM.

Compound `COc1cccc(NC(=O)[C@@H](CCC(=O)O)NC(=O)[C@H](CC(=O)O)NC(=O)[C@H](Cc2ccc3ccccc3c2)NC(=O)c2cc3cc(Cl)ccc3[nH]2)c1` came in with an IC50 in assay [1] of 39 µM.

In assay [1], `O=C(O)CC[C@H](NC(=O)[C@H](CC(=O)O)NC(=O)[C@H](Cc1cccc2ccccc12)NC(=O)c1cc2cc(Cl)ccc2[nH]1)C(=O)Nc1ccccc1` returned an IC50 of 11 µM.

On to `COc1cccc(NC(=O)[C@H](CCC(=O)O)NC(=O)[C@H](CC(=O)O)NC(=O)[C@H](Cc2ccc3ccccc3c2)NC(=O)c2cc3cc(Cl)ccc3[nH]2)c1`, for which the IC50 in assay [1] was 9.3 µM.

For `O=C(O)CC[C@H](NC(=O)[C@H](CC(=O)O)NC(=O)[C@H](Cc1ccccc1Cl)NC(=O)c1cc2cc(Cl)ccc2[nH]1)C(=O)Nc1ccccc1`, half-maximal inhibition in assay [1] (IC50) was put at 55 µM. This IC50 lies about 5.9-fold higher than the previous one.

For the compound `O=C(O)CC[C@H](NC(=O)[C@H](CC(=O)O)NC(=O)[C@H](Cc1ccc2ccccc2c1)NC(=O)c1cc2cc(Cl)ccc2[nH]1)C(=O)Nc1ccc(Cl)cc1`, the IC50 in assay [1] was found to be 11 µM.

As for `O=C(O)C[C@H](NC(=O)[C@H](Cc1ccc2ccccc2c1)NC(=O)c1cc2cc(Cl)ccc2[nH]1)C(=O)N[C@@H](Cc1nn[nH]n1)C(=O)Nc1ccc(OC(F)(F)F)cc1`, the IC50 in assay [1] is 5.9 µM.

In assay [1], `O=C(O)CC[C@H](NC(=O)[C@H](CC(=O)O)NC(=O)[C@H](Cc1ccc2ccccc2c1)NC(=O)c1cc2cc(Cl)ccc2[nH]1)C(=O)Nc1ccc(OC(F)(F)F)cc1` showed an IC50 of 7.5 µM.

The compound `O=C(O)CC[C@H](NC(=O)[C@H](CC(=O)O)NC(=O)[C@H](Cc1ccc2ccccc2c1)NC(=O)c1cc2cc(Cl)ccc2[nH]1)C(=O)Nc1cccc(OC(F)(F)F)c1` registered an IC50 in assay [1] of 8.5 µM. The IC50 values of the last two compounds are within 1.5-fold of each other.

On to `COc1cc(NC(=O)[C@H](CCC(=O)O)NC(=O)[C@H](CC(=O)O)NC(=O)[C@H](Cc2ccc3ccccc3c2)NC(=O)c2cc3cc(Cl)ccc3[nH]2)cc(C(F)(F)F)c1`, for which the IC50 in assay [1] is 10 µM.

Consider `COc1ccc(NC(=O)[C@H](CCC(=O)O)NC(=O)[C@H](CC(=O)O)NC(=O)[C@H](Cc2ccc3ccccc3c2)NC(=O)c2cc3cc(Cl)ccc3[nH]2)cc1`, for which inhibition in assay [1] was half-maximal at 10 µM (IC50). In other words, the double-digit micromolar range.

In assay [1], `CC(C)C[C@H](NC(=O)c1cc2cc(Cl)ccc2[nH]1)C(=O)N[C@@H](CC(=O)O)C(=O)N[C@@H](CCC(=O)O)C(=O)Nc1ccccc1` showed an IC50 of 273 µM. This IC50 is about 27-fold higher than that of the compound before.

Compound `COC(=O)[C@H](CCC(=O)O)NC(=O)[C@H](CC(=O)O)NC(=O)[C@H](Cc1ccc2ccccc2c1)NC(=O)c1cc2cc(Cl)cc(Cl)c2[nH]1` displayed an IC50 in assay [1] of 38 µM. This IC50 is about 7.2-fold lower than that of the compound before.

In assay [1], `CC(C)CCNC(=O)[C@H](CCC(=O)O)NC(=O)[C@H](CC(=O)O)NC(=O)[C@H](Cc1ccc2ccccc2c1)NC(=O)c1cc2cc(Cl)ccc2[nH]1` displayed an IC50 of 33 µM.

As for `COc1cccc(NC(=O)[C@H](CCC(=O)O)NC(=O)[C@@H](CC(=O)O)NC(=O)[C@H](Cc2ccc3ccccc3c2)NC(=O)c2cc3cc(Cl)ccc3[nH]2)c1`, the IC50 in assay [1] worked out at 26 µM.

For the compound `O=C(O)CC[C@H](NC(=O)[C@H](CC(=O)O)NC(=O)[C@H](Cc1ccc2ccccc2c1)NC(=O)c1cc2cc(Cl)ccc2[nH]1)C(=O)Nc1ccccc1Cl`, in assay [1], the IC50 stood at 38 µM.

Compound `CCOC(=O)CC[C@H](NC(=O)[C@H](Cc1nn[nH]n1)NC(=O)[C@H](Cc1ccc2ccccc2c1)NC(=O)c1cc2cc(Cl)ccc2[nH]1)C(=O)Nc1ccc(OC(F)(F)F)cc1` showed a concentration for half-maximal inhibition (IC50) in assay [1] of 21 µM.

As for `O=C(O)CC[C@H](NC(=O)[C@H](CC(=O)O)NC(=O)[C@H](Cc1ccc2ccccc2c1)NC(=O)c1cc2cc(Cl)ccc2[nH]1)C(=O)Nc1ccc(F)cc1`, 17 µM corresponded to half-maximal inhibition in assay [1] (IC50).

Consider `COc1cc(NC(=O)[C@H](CCC(=O)O)NC(=O)[C@H](CC(=O)O)NC(=O)[C@H](Cc2ccc3ccccc3c2)NC(=O)c2cc3cc(Cl)ccc3[nH]2)cc(OC)c1`, for which the IC50 in assay [1] was 13 µM.

In turn, `O=C(O)CC[C@H](NC(=O)[C@H](CC(=O)O)NC(=O)[C@H](Cc1ccc2ccccc2c1)NC(=O)c1cc2cc(Cl)ccc2[nH]1)C(=O)NCCc1ccccc1` displayed an IC50 in assay [1] of 35 µM. Against the preceding compound, the IC50 is about 2.7-fold higher.

For `O=C(O)CC[C@H](NC(=O)[C@H](CC(=O)O)NC(=O)[C@H](Cc1ccc2ccccc2c1)NC(=O)c1cc2cc(Cl)ccc2[nH]1)C(=O)Nc1cccc(C(F)(F)F)c1`, 8.9 µM corresponded to half-maximal inhibition in assay [1] (IC50).

With `COC(=O)[C@H](CCC(=O)O)NC(=O)[C@H](CC(=O)O)NC(=O)[C@H](Cc1ccc2ccccc2c1)NC(=O)c1cc2cc(C(F)(F)F)ccc2[nH]1`, the IC50 in assay [1] worked out at 47 µM.

The values are drawn from ChEMBL document CHEMBL4339194 (J Med Chem, 2019).
